Measured values published in paper PMC7187165, “Structure‐Based Design, Synthesis, and Biological Evaluation of Triazole‐Based smHDAC8 Inhibitors” (Chemmedchem, 2020).

Biological target: T1, smHDAC8 (Schistosoma mansoni, UniProt A5H660)
T1 construct: made in house; host or cells: E. coli
T1 sequence (A5H660 1-440): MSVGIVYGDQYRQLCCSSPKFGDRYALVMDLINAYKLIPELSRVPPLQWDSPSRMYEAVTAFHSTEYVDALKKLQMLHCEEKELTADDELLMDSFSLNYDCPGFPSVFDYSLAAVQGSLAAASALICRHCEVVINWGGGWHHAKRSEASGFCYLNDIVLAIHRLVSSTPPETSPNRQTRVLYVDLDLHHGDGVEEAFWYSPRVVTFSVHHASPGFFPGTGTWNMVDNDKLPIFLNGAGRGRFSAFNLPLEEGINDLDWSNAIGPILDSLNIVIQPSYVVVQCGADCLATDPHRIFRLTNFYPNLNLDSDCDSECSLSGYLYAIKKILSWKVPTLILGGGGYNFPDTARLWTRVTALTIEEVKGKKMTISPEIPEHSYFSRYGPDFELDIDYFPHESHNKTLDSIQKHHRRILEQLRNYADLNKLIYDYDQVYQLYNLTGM
Experiment: biochemical
Format: biochemical

selectivity for smHDAC8 (over hsHDAC8) (from IC50 values smHDAC8 vs hsHDAC8) | SMILES | IC50 [µM]
threefold | O=C(NO)c1cn(-c2ccccc2)nn1 [Compound 2 b, N ‐Hydroxy‐1‐phenyl‐1H‐1,2,3‐triazole‐4‐carboxamide] | 
 | O=C(CCCCCCC(=O)Nc1ccccc1)NO [SAHA (1), SAHA, reference compound] | 1.17 ± 0.33
